The assay addresses human GPBAR1 receptor (Homo sapiens, UniProt Q8TDU6). The experiment in a line: functional cAMP assay in CHO-dhfr(minus) cells expressing human GPBAR1 receptors. The assay is classed as cell-based. Particulars: read-out: human EC50, 30 min at 30° C.

The chains behind the UniProt entries cited, without tags or fusion partners.
UniProt Q8TDU6, whole entry: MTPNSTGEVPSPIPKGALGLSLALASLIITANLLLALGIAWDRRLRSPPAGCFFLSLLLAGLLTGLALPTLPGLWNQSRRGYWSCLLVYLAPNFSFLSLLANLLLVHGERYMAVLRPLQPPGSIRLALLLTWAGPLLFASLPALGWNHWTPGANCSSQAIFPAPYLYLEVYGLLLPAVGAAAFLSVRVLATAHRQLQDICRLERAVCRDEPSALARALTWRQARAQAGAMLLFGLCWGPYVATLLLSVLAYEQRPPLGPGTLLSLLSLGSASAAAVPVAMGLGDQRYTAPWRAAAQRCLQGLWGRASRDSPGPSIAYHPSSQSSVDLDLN

In general, EC50 refers to the midpoint of the concentration-response curve.

As to `Cc1cc(/C(C[C@H](c2ccc([C@H]3CC[C@H](C(=O)O)CC3)cc2)c2ccccc2C)=N/O)ccn1`, the EC50 is 0.017 µM.

The values above are taken from patent US8765730B2 (Hoffmann-La Roche Inc, priority 2010, dated 2014).
